Experimental data as given in PubChem BioAssay AID1220 (Sanford-Burnham Center for Chemical Genomics, 2008).
The list shows a part of the results, in another mix than the full data. Calls of active or inactive are those of the source. Cut-off read from the data, not from the text of the source: active = inhibition above about 50%; inactive = the rest.

Protein sequences, listed by entry. Tags and fused reporters are not part of them. Lines headed by an entry give the natural chain unless they say otherwise; changes in a name come on top.
UniProt P34949: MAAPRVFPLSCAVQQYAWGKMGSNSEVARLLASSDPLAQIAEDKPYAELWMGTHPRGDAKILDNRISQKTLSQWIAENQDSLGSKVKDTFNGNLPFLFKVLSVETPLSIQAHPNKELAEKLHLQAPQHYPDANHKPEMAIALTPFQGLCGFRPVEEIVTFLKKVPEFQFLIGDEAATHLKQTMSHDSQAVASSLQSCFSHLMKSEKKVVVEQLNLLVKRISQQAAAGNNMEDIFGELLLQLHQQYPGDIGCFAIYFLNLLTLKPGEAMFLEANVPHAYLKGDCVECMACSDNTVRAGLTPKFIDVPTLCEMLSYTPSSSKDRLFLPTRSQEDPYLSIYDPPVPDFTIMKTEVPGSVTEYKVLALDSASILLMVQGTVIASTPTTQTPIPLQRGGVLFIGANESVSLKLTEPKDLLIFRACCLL

The compounds below were run against Mannose-6-phosphate isomerase (Homo sapiens) (UniProt P34949) (assay: MPI inhibition at elevated mannose 6-phosphate – biochemical, fluorescence intensity, high mannose 6-phosphate, primary screen (AID 1220)). Details: recombinant PMI enzyme, coupled fluorescence intensity; at 20 µM; hits give high values.
`CC(C)(C)C(=O)NC(Sc1ccccc1)C(Cl)(Cl)Cl` (configuration not stated) was tested, and the inhibition was inactive: 3.2%.
In the case of `O=P1(Nc2nc3ccc(Cl)cc3s2)COc2ccccc2O1` (configuration not stated), the inhibition is reported as inactive: 7.3%.
With `CCOc1ccc(C2=NCC(CBr)S2)cc1` (configuration not stated) the inhibition was inactive: -4.7%.
`CC(=O)Nc1ccc(Oc2c([N+](=O)[O-])cc([N+](=O)[O-])cc2[N+](=O)[O-])cc1` was tested, and the inhibition was inactive: 0.6%.
With `O=C(NC1CCS(=O)(=O)C1)NP(=S)(Oc1ccccc1)Oc1ccccc1` (configuration not stated) the inhibition was inactive: 15.3%.
In the case of `CCNC(=S)/N=C(\N)N[N+](=O)[O-]`, the inhibition is reported as inactive: -6.9%.
In the case of `c1ccc(-c2nn[nH]n2)c(-c2nn[nH]n2)c1`, the inhibition is reported as inactive: -16.5%.
In the case of `CCOC(=O)NC(Sc1ccccc1)C(Cl)(Cl)Cl` (configuration not stated), the inhibition is reported as inactive: 0.8%.
In the case of `O=c1c2cc([N+](=O)[O-])ccc2[nH]c2c([N+](=O)[O-])cc([N+](=O)[O-])cc12`, the inhibition is reported as inactive: 26.3%.
With `COC(=O)c1cc2c(s1)N=C(c1ccccc1)N(C)P2(=O)N1CCOCC1` (configuration not stated) the inhibition was inactive: -4.1%.
For `Cc1ccc(OP(=O)(Nc2ccccn2)Oc2ccc(C)cc2)cc1`, the inhibition was inactive: 6%.
With `CC(=O)NC(SC(=S)N(CC(C)C)CC(C)C)C(Cl)(Cl)Cl` (configuration not stated) the inhibition was inactive: -8.7%.
In the case of `CCC(=O)N1C2C3N(C(=O)CC)C1C1N(C(=O)CC)C(C(N1C(=O)CC)N3C(=O)CC)N2C(=O)CC`, the inhibition is reported as inactive: 1.7%.
`O=P(Nc1ccccn1)(c1ccc(Br)cc1)c1ccc(Br)cc1` was tested, and the inhibition was inactive: 2.6%.
For `C(Cc1nn[nH]n1)Cc1nn[nH]n1`, the inhibition was inactive: -24.9%.
`O=C(OC1CN2CCC1CC2)c1cccc(Cl)c1` (configuration not stated) was tested, and the inhibition was inactive: 5.7%.
With `CC(=O)NC(SC(=S)N(C)C)C(Cl)(Cl)Cl` (configuration not stated) the inhibition was inactive: -3%.
With `c1nnnn1CCn1cnnn1` the inhibition was inactive: 2.3%.
`O=P(Nc1nccs1)(c1ccccc1)c1ccccc1` was tested, and the inhibition was inactive: -5.3%.
For `CC(C)C(=O)NC(Sc1ccccc1)C(Cl)(Cl)Cl` (configuration not stated), the inhibition was inactive: -1.9%.
In the case of `CC(=O)N1C2C3N(C(C)=O)C1C1N(C(C)=O)C(C(N1C(C)=O)N3C(C)=O)N2C(C)=O`, the inhibition is reported as inactive: 3.1%.
For `O=[N+]([O-])c1cccc2n[nH]nc12`, the inhibition was inactive: -7.7%.
In the case of `Cc1ccc(NP(=O)(Oc2ccccc2)Oc2ccccc2)nc1`, the inhibition is reported as inactive: 10.1%.
`O=[N+]([O-])c1cc([N+](=O)[O-])c(CCNc2ccccc2)c([N+](=O)[O-])c1` was tested, and the inhibition was inactive: 6%.
In the case of `COc1ccc(C2=NCC(CBr)S2)cc1` (configuration not stated), the inhibition is reported as inactive: -8.4%.
For `CC(C)=N/N=C(\N)N[N+](=O)[O-]`, the inhibition was inactive: -9.5%.
For `CN(C)C(=O)OCCc1n(C)cc[n+]1C`, the inhibition was inactive: -6.6%.
`CC1CCN(C(=O)Oc2c(Cl)cc(Cl)c3cccnc23)CC1` was tested, and the inhibition was inactive: -0.7%.
With `CCN(/C(=N/P(=O)(N1CCOCC1)N1CCOCC1)N1CCOCC1)c1ccc(OC)cc1` the inhibition was inactive: -0.7%.
With `O=[N+]([O-])c1ncn(CCn2ncnc2[N+](=O)[O-])n1` the inhibition was inactive: 15%.
`CCOP(=O)(Nc1ccccc1)OCC` was tested, and the inhibition was inactive: -3.4%.
`Cc1cc(SC(NC(=O)c2ccc(F)cc2)C(Cl)(Cl)Cl)ncn1` (configuration not stated) was tested, and the inhibition was inactive: -37.8%.
With `CCN(N=Nc1nonc1N)c1nonc1N` the inhibition was inactive: 12.7%.
With `COc1ccccc1OP(=O)(Nc1ccc(C)cn1)Oc1ccccc1OC` the inhibition was inactive: 2%.
With `Clc1ccc(Cl)c(NC2=NCC(CBr)S2)c1` (configuration not stated) the inhibition was inactive: -9.9%.
In the case of `CN1CCCC(OC(=O)C(c2ccccc2)c2ccccc2)C1` (configuration not stated), the inhibition is reported as inactive: -11.3%.
In the case of `NC(=O)c1cc([N+](=O)[O-])cc([N+](=O)[O-])c1N`, the inhibition is reported as inactive: -4.8%.
With `Cc1ccc(N/C(=N/P(=O)(N2CCOCC2)N2CCOCC2)N2CCOCC2)cc1` the inhibition was inactive: -3.2%.
In the case of `CC(C)CC(=O)NC(Sc1ccc(Cl)cc1)C(Cl)(Cl)Cl` (configuration not stated), the inhibition is reported as inactive: -2.5%.
With `Oc1ccccc1CNc1ccccn1` the inhibition was inactive: 1.2%.
In the case of `Cc1c2non([O-])c-2c(C)[n+](=O)[n+]1[O-]`, the inhibition is reported as inactive: 37.7%.
With `O=C(NC(Sc1ccncn1)C(Cl)(Cl)Cl)c1ccccc1` (configuration not stated) the inhibition was inactive: -66.1%.
With `COc1ccc2nc(NP(=O)(c3ccccc3)c3ccccc3)sc2c1` the inhibition was inactive: -0.9%.
With `O=C(OC1CN2CCC1CC2)C12CC3CC(CC(C3)C1)C2` (configuration not stated) the inhibition was inactive: -6.1%.
`Cc1cc(=O)[nH]c(N[N+](=O)[O-])n1` was tested, and the inhibition was inactive: -2%.
With `Cc1c2c(nc3ccccc13)SC(C(Cl)Cl)C2` (configuration not stated) the inhibition was inactive: 0.6%.
`COc1ccc(N/C(=N/P(=O)(N2CCOCC2)N2CCOCC2)N2CCOCC2)cc1` was tested, and the inhibition was inactive: 1.2%.
In the case of `Cc1ccc2nc3c(c(C)c2c1)CC(C(Cl)Cl)S3` (configuration not stated), the inhibition is reported as inactive: 1.1%.
For `CCN(CC)C(=S)SC(NC=O)C(Cl)(Cl)Cl` (configuration not stated), the inhibition was inactive: 0.3%.
With `CC(C)NC(=O)NP(=O)(Oc1ccccc1)Oc1ccccc1` the inhibition was inactive: 8.9%.
In the case of `O=[N+]([O-])c1cc([N+](=O)[O-])c(-c2ccn[nH]2)s1`, the inhibition is reported as inactive: 15%.
In the case of `ClCCSc1nnc(-c2cccnc2)o1`, the inhibition is reported as inactive: 14%.
`Cc1cc(SC(NC(=O)c2ccccc2)C(Cl)(Cl)Cl)nc(C(C)C)n1` (configuration not stated) was tested, and the inhibition was inactive: -17.2%.
`Cc1cc(SC(NC=O)C(Cl)(Cl)Cl)ncn1` (configuration not stated) was tested, and the inhibition was inactive: -76.6%.
With `O=P(Nc1ccccn1)(c1cccc2ccccc12)c1cccc2ccccc12` the inhibition was inactive: 8.8%.
In the case of `O=C(COc1ccccc1)OC1CN2CCC1CC2` (configuration not stated), the inhibition is reported as inactive: -0.6%.
`COP1(=S)c2c(C)nn(CCC#N)c2N=C(c2ccc(F)cc2)N1C` (configuration not stated) was tested, and the inhibition was inactive: -6.4%.
`CCC(C)N(CC(C)C)C(=S)SC(NC(C)=O)C(Cl)(Cl)Cl` (configuration not stated) was tested, and the inhibition was inactive: -7.3%.
For `Clc1n[nH]nc1-c1nn[nH][15n]1`, the inhibition was inactive: 3.7%.
With `O=P1(Nc2ccccn2)COc2ccccc2OC1` the inhibition was inactive: 3.9%.
With `CN(C(=O)Cc1ccc(Cl)c(Cl)c1)[C@@H]1CCCC[C@H]1N1CCCC1` the inhibition was inactive: 1.5%.
In the case of `CC(C)/C=N\N=C(\N)N[N+](=O)[O-]`, the inhibition is reported as inactive: -12.1%.
For `CN(C)C1(CNC(=O)c2ccc(S(C)(=O)=O)cc2)CCCCC1`, the inhibition was inactive: 9.2%.
With `Cc1nn(-c2ccccc2)c2c1P(=O)(N1CCOCC1)N(C)C(c1ccccc1)=N2` (configuration not stated) the inhibition was inactive: 6.7%.
`CC1CCC(C(C)C)C(OP(=O)(Nc2ccccn2)c2ccccc2)C1` (configuration not stated) was tested, and the inhibition was inactive: -2.4%.
In the case of `O=P1(Nc2ccc(Br)cn2)COc2ccccc2OC1`, the inhibition is reported as inactive: -6.5%.
For `Cc1ccc(OCC(=O)OC2CN3CCC2CC3)cc1` (configuration not stated), the inhibition was inactive: 7.7%.
With `O=P1(Nc2ncccn2)COc2ccccc2OC1` the inhibition was inactive: -20.7%.
For `CCOP1(=S)c2c(C)nn(CCC#N)c2N=C(c2ccccc2F)N1C` (configuration not stated), the inhibition was inactive: -0.3%.
In the case of `O=P(Nc1nccs1)(Oc1ccccc1)Oc1ccccc1`, the inhibition is reported as inactive: 2.8%.
`O=[N+]([O-])c1ccc2c(c1)nnn2O` was tested, and the inhibition was inactive: -8.8%.
In the case of `CCOP1(=S)c2c(C)nn(CCC#N)c2N=C(c2ccc(F)cc2)N1C` (configuration not stated), the inhibition is reported as inactive: -2.1%.
For `Cc1cccc(OCC(=O)OC2CN3CCC2CC3)c1` (configuration not stated), the inhibition was inactive: 3.8%.
In the case of `COc1cc(C(=O)NCC2(N3CCOCC3)CCCCC2)cc(Cl)c1OC(C)C`, the inhibition is reported as inactive: -5.8%.
`COc1cc(C2NCCC3(OCCO3)C2(C)C)cc(OC)c1OC` (configuration not stated) was tested, and the inhibition was inactive: -2.3%.
For `CCOP(=O)(Nc1cccc2ccccc12)OCC`, the inhibition was inactive: 3.2%.
With `Cc1ccc(NCCc2c([N+](=O)[O-])cc([N+](=O)[O-])cc2[N+](=O)[O-])cc1` the inhibition was inactive: 25.3%.
